Values of other authors, collected in paper PMC12251305 (Molecules, 2025).

How the values were obtained:
KOP = details: read-out: KOP Ki; Figure 1; ref [29]; cited from earlier work
MOP = details: read-out: MOP Ki; Figure 1; ref [29]; cited from earlier work
C57BL/6J mice = details: mouse 48 °C warm water tail withdrawal test; ref [29]; cited from earlier work
DOP = details: read-out: DOP Ki; Figure 1; ref [29]; cited from earlier work

With `N=C(N)NCCNC(=O)C1(Nc2ccccc2)CCN(Cc2ccccc2)CC1` [compound 2] as the compound, how does the Ki (KOP) read?
The Ki was 1470 nM.

And the Ki (MOP)?
Its Ki is over 5000 nM.

And the “prevention of NPFF-induced hyperalgesia” value (C57BL/6J mice)?
The value was “prevents NPFF-induced hyperalgesia”.

What about the Ki (DOP) of the same compound?
Its Ki is 2610 nM.
